Experimental data published in patent US10428106B2, “Phosphate replacement mRNA cap analogs” (ModernaTX, Inc., priority 2015, dated 2019).

The chains behind the UniProt entries cited, without tags or fusion partners. Residues count along the entry.
UniProt P06730, 32-217: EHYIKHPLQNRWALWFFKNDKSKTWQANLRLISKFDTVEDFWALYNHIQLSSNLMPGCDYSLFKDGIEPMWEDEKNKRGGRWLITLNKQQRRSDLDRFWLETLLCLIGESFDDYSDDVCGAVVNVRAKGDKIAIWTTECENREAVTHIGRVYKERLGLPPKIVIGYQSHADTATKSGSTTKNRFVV

Molecular target: T1, eIF4E (Homo sapiens, UniProt P06730)
T1 construct: HNAVIpeptTEVeIF4E 32-217(Biotinylated)
Assay: Binding affinities to eIF4E using surface plasmon resonance (SPR)

Kd (SPR value repeated in Table 4): 2000 nM
Kd (SPR, Biacore 3000, captured biotinylated eIF4E, Table 3): 2000 nM
koff (SPR, off-rate from dissociation phase, Table 3): 0.8 s⁻¹
SMILES: Cn1c[n+]([C@@H]2O[C@H](COP(=O)(O)OP(=O)([O-])OP(=O)(O)OC[C@H]3O[C@@H](n4cnc5c(=O)[nH]c(N)nc54)[C@H](O)[C@@H]3O)[C@@H](O)[C@H]2O)c2nc(N)[nH]c(=O)c21 [Cap0 (i.e., m7GpppG), m7GpppG]
